Data published in PubChem BioAssay AID1948 (National Center for Advancing Translational Sciences (NCATS), 2009).
Only a part is listed here, and it is no random draw. Active and inactive are the calls of the source. Calls come from the whole dose curve; as a rule, active = well fitted activation curve with a large enough effect; inconclusive = small, poorly fitted or top-dose-only effect; inactive = no such curve, though single readings can be large or run the other way.

Assay: qHTS Assay for Compounds that Induce Erasure of Genomic Imprints;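 note: 0% = negative control wells on the plate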
Conditions: mouse ES Peg3-LacZ reporter, beta-gal luminescence, 40 h
[1] = at 60.7 µM (top of the series) unless noted

Question: With `[N-]=[N+]=NCC(O)CN=[N+]=[N-]` (stereo unspecified) as the compound, how does the activity change, positive = activation [1] read?
Answer: The activity change, positive = activation was inactive: -14.3% [at 10.9 µM].

Question: Which activity change, positive = activation [1] does the source give for `CN(C(=O)Cc1ccc(Cl)c(Cl)c1)[C@H]1CCCC[C@@H]1N1CCCC1` here?
Answer: Its activity change, positive = activation is inactive: -11.5% [middle of 6 runs].

Question: For `NCC[C@@H](N)CSP(=O)(O)O`, which activity change, positive = activation [1] is on record?
Answer: Its activity change, positive = activation is inactive: -7.63% [at 10.9 µM].

Question: With `Cc1c2non([O-])c-2c(C)[n+](=O)[n+]1[O-]` as the compound, how does the activity change, positive = activation [1] read?
Answer: Its activity change, positive = activation is inactive: -40.5%.

Question: For `O=[N+]([O-])c1ccc(C[As](=O)(O)O)cc1`, which activity change, positive = activation [1] is on record?
Answer: Its activity change, positive = activation is inactive: 2.59% [at 10.9 µM].

Question: For `O=C(CO)Nc1ccc([As](=O)(O)O)cc1`, which activity change, positive = activation [1] is on record?
Answer: The activity change, positive = activation was inactive: -4.12% [at 10.9 µM].

Question: With `CC(=O)C1=CCCC2CCC1N2` (stereo unspecified) as the compound, how does the activity change, positive = activation [1] read?
Answer: The activity change, positive = activation was inactive: 6.7%.

Question: With `CCc1nc2c(n1)c1c(non1O)c1c2no[n+]1[O-]` as the compound, how does the activity change, positive = activation [1] read?
Answer: Its activity change, positive = activation is inactive: -31.3%.

Question: Which activity change, positive = activation [1] does the source give for `O=C(OC1CN2CCC1CC2)c1cccc(Cl)c1` (stereo unspecified) here?
Answer: The activity change, positive = activation was inactive: -21%.

Question: For `[N-]=[N+]=Nc1ccc([As](=O)(O)O)cc1`, which activity change, positive = activation [1] is on record?
Answer: The activity change, positive = activation was inactive: -6.66% [at 10.9 µM].

Question: For `C[C@@H](O)COc1ccc([As](=O)(O)O)cc1N`, which activity change, positive = activation [1] is on record?
Answer: Its activity change, positive = activation is inactive: -2.8% [at 10.9 µM].

Question: For `CN1CCC[C@H](OC(=O)C(c2ccccc2)c2ccccc2)C1`, which activity change, positive = activation [1] is on record?
Answer: The activity change, positive = activation was inactive: -13.6% [at 10.9 µM].

Question: Which activity change, positive = activation [1] does the source give for `c1nnnn1CCn1cnnn1` here?
Answer: Its activity change, positive = activation is inactive: -0.829%.

Question: Which activity change, positive = activation [1] does the source give for `O=P(Nc1nccs1)(c1ccccc1)c1ccccc1` here?
Answer: The activity change, positive = activation was inactive: -9.52%.

Question: Which activity change, positive = activation [1] does the source give for `O=P1(Nc2nc3ccc(Cl)cc3s2)COc2ccccc2O1` (stereo unspecified) here?
Answer: The activity change, positive = activation was inactive: 7.49%.

Question: With `COC(=O)c1cc2c(s1)N=C(c1ccccc1)N(C)P2(=O)N1CCOCC1` (stereo unspecified) as the compound, how does the activity change, positive = activation [1] read?
Answer: The activity change, positive = activation was inactive: -6.76%.

Question: Which activity change, positive = activation [1] does the source give for `CN(C(=O)Cc1ccc(Cl)c(Cl)c1)[C@@H]1CCCC[C@@H]1N1CCCC1` here?
Answer: The activity change, positive = activation was inactive: -9.89%.

Question: For `CCOP1(=S)c2c(C)nn(CCC#N)c2N=C(c2ccc(F)cc2)N1C` (stereo unspecified), which activity change, positive = activation [1] is on record?
Answer: The activity change, positive = activation was inactive: -12.8%.

Question: What does the source list for `NC(=O)Nc1ccc([As](=O)(O)O)cc1`?
Answer: activity change, positive = activation (at 16.8 µM (top of the series)): inactive: 1.25%; activity change, positive = activation (at 60.7 µM (top of the series)): inactive: 2.87%

Question: With `O=[As](O)(O)c1ccc([As](=O)(O)O)cc1` as the compound, how does the activity change, positive = activation [1] read?
Answer: The activity change, positive = activation was inactive: -5.73% [at 10.9 µM].

Question: For `CCOP1(=S)c2c(C)nn(CCC#N)c2N=C(c2ccccc2F)N1C` (stereo unspecified), which activity change, positive = activation [1] is on record?
Answer: Its activity change, positive = activation is inactive: -11.3%.

Question: For `O=P(Nc1nccs1)(c1ccccc1)c1nc2ccccc2s1` (stereo unspecified), which activity change, positive = activation [1] is on record?
Answer: Its activity change, positive = activation is inactive: -8.2%.

Question: With `O=C(CC(=O)c1ccccc1)O[C@H]1CN2CCC1CC2` as the compound, how does the activity change, positive = activation [1] read?
Answer: Its activity change, positive = activation is inactive: -17.6% [at 10.9 µM].

Question: With `NS(=O)(=O)Cc1ccc([As](=O)(O)O)cc1` as the compound, how does the activity change, positive = activation [1] read?
Answer: Its activity change, positive = activation is inactive: -8.48% [at 10.9 µM].

Question: With `CN(C(=O)Cc1ccc(Cl)c(Cl)c1)[C@@H]1CC[C@]2(CCCO2)C[C@H]1N1CCCC1` as the compound, how does the activity change, positive = activation [1] read?
Answer: Its activity change, positive = activation is inactive: -11.7%.

Question: With `CN(C(=O)Cc1ccc(Cl)c(Cl)c1)[C@@H]1CCCC[C@H]1N1CCCC1` as the compound, how does the activity change, positive = activation [1] read?
Answer: Its activity change, positive = activation is inactive: -4.88%.

Question: For `Clc1n[nH]nc1-c1nn[nH][15n]1`, which activity change, positive = activation [1] is on record?
Answer: Its activity change, positive = activation is inactive: -0.0809%.

Question: Which activity change, positive = activation [1] does the source give for `CN(CCCl)Cc1cc(Cl)c(NC2=NCCN2)c(Cl)c1` here?
Answer: The activity change, positive = activation was inactive: -60.8%.

Question: Which activity change, positive = activation [1] does the source give for `O=P1(Nc2ccccn2)COc2ccccc2OC1` here?
Answer: The activity change, positive = activation was inactive: 4.5%.

Question: With `O=P1(Nc2ccc(Br)cn2)COc2ccccc2OC1` as the compound, how does the activity change, positive = activation [1] read?
Answer: The activity change, positive = activation was inactive: 6.9%.

Question: With `O=P1(Nc2ncccn2)COc2ccccc2OC1` as the compound, how does the activity change, positive = activation [1] read?
Answer: Its activity change, positive = activation is inactive: -8.03%.

Question: Which activity change, positive = activation [1] does the source give for `Cc1nn(-c2ccccc2)c2c1P(=O)(N1CCOCC1)N(C)C(c1ccccc1)=N2` (stereo unspecified) here?
Answer: Its activity change, positive = activation is inactive: 4.72%.

Question: For `CN(N=O)C(=N)N[N+](=O)[O-]`, which activity change, positive = activation [1] is on record?
Answer: Its activity change, positive = activation is inactive: -5.21%.

Question: Which activity change, positive = activation [1] does the source give for `O=C(O)[C@@H](O)c1ccc([As](=O)(O)O)cc1` here?
Answer: The activity change, positive = activation was inactive: 12.7% [at 10.9 µM].

Question: With `O=C(COc1ccccc1)OC1CN2CCC1CC2` (stereo unspecified) as the compound, how does the activity change, positive = activation [1] read?
Answer: Its activity change, positive = activation is inactive: 4.47%.

Question: For `COP1(=S)c2c(C)nn(CCC#N)c2N=C(c2ccc(F)cc2)N1C` (stereo unspecified), which activity change, positive = activation [1] is on record?
Answer: Its activity change, positive = activation is inactive: -15.9%.

Question: For `NC(=O)Nc1cc([As](=O)(O)O)cc(I)c1O`, which activity change, positive = activation [1] is on record?
Answer: Its activity change, positive = activation is inactive: -5.03% [at 10.9 µM].

Question: With `O=C(OC1CN2CCC1CC2)C12CC3CC(CC(C3)C1)C2` (stereo unspecified) as the compound, how does the activity change, positive = activation [1] read?
Answer: The activity change, positive = activation was inactive: -25%.

Question: For `[N-]=[N+]=NCC(N)=O`, which activity change, positive = activation [1] is on record?
Answer: Its activity change, positive = activation is inactive: 0.27% [at 10.9 µM].

Question: For `O=[As]c1ccc(S(=O)(=O)NCCO)cc1` (stereo unspecified), which activity change, positive = activation [1] is on record?
Answer: Its activity change, positive = activation is inactive: -8.22% [at 10.9 µM].
